Source: US4801458A, “Sustained release pharmaceutical plaster” (dated 1989)

Assay: Moisture content versus isosorbide dinitrate content of moisturized plaster (Experiment Example 6)
Settings: moisturized plaster of Example 5, room temperature, Table 6

In the case of `O=[N+]([O-])O[C@H]1CO[C@H]2[C@@H]1OC[C@H]2O[N+](=O)[O-]`, the “evaporation of isosorbide dinitrate (in words)” value is reported as “scarcely evaporated”.
